The values below are quoted from earlier work in patent US12637662B2, “Cells, islets, and organoids that evade immune detection and autoimmunity, methods of production and use thereof” (SALK INSTITUTE FOR BIOLOGICAL STUDIES, priority 2018, dated 2026).

Data set [1] concerns the target T1, CD80 (B7-1) (Homo sapiens, UniProt P33681).
T1 sequence (P33681 35-288): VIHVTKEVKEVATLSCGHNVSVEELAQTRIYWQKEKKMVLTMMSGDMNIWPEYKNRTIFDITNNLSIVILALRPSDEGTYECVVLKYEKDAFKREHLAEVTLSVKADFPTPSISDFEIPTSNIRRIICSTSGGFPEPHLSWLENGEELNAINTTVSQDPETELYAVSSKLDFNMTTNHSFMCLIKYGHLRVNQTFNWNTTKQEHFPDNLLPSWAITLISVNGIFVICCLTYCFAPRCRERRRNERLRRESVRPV
The note with it: read-out: affinity for CD80; cited from earlier work.

The target of data set [2] is CD28 (Homo sapiens, UniProt P10747). The note with it: read-out: affinity for CD28; cited from earlier work.
Data set [3] has as its target T2, CD86 (B7-2) (Homo sapiens, UniProt P42081).
T2 sequence (P42081 24-329): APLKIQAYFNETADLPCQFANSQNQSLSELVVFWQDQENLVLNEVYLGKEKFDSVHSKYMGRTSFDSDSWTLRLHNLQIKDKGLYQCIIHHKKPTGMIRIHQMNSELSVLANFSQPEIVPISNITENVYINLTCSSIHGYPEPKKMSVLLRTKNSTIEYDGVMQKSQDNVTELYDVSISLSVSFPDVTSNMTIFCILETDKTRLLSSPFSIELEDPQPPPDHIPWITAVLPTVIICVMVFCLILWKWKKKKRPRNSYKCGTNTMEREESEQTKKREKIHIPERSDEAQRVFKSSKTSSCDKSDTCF
The note with it: cited from earlier work.

Data set [4] addresses CTLA-4 (Homo sapiens, UniProt P16410). The note with it: read-out: affinity for CTLA-4; cited from earlier work.

As to “PD-L1: immune checkpoint protein, cognate ligand that binds to PD-1”, the figures for the Kd in data set [1], in data set [2] and in data set [4] were 1.4 µM, 4 µM and 0.4 µM, respectively. The “affinity for CD86 (in words)” value in data set [3] is “not for CD86”.
